Measurements reported in patent US9814918B2, “Microbial deactivation of explosive compositions” (dated 2017).
Only a part of the results on these compounds is given; other tests are left out.

Columns and labels:
[1] = test system: mixed soil culture; assay: Induction of nitroglycerin-degrading activity in a mixed soil culture; conditions: 24 h in Luria Broth, 1% w/v soil slurry, 0.5 mM GTN, PETN, TNT, NEM, 0.25 mM MD, 1 mM DMFU, 4 mM DEME, 1 mM 3HC, TPBO, TBHQ, DMME; for nitroglycerin-degrading activity of cell-free extract: NADPH
[2] = test system: Agrobacterium tumifaciens PD31; assay: Induction of nitroglycerin-degrading activity in Agrobacterium tumifaciens PD31; conditions: 24 h in Luria Broth, 0.5 mM NEM, 0.25 mM MD, 1 mM DMFU, 4 mM DEME, DEMO, DMMO, 0.5 mM GTN, PETN, TNT; for nitroglycerin-degrading activity of cell-free extract: NADH
[3] = test system: Agrobacterium tumifaciens AGL-1; assay: Induction of nitroglycerin-degrading activity in Agrobacterium tumifaciens AGL-1; conditions: 24 h in Luria Broth; 0.25 mM NEM, 0.125 mM MD, 1 mM DMFU, 4 mM DEME, DEMO, DMMO, 0.5 mM GTN, PETN, TNT; NADH
[4] = test system: Escherichia coli DH5α; assay: Induction of nitroglycerin-degrading activity in Escherichia coli DH5α (nitrite release by cell-free extracts); conditions: 24 h in Luria Broth; 0.25 mM NEM, 0.25 mM MD, 1 mM DMFU, 4 mM DEME, DEMO, DMMO, 0.5 mM GTN, PETN, TNT; NADPH
[5] = test system: Pseudomonas sp. BB13; assay: Induction of nitroglycerin-degrading activity in Pseudomonas sp. BB13; conditions: 24 h in Luria Broth; 0.25 mM NEM, 0.5 mM MD, 1 mM DMFU, 4 mM DEME, DEMO, DMMO, 0.5 mM GTN, PETN, TNT; NADPH
[6] = test system: Klebsiella pneumoniae BB6; assay: Induction of nitroglycerin-degrading activity in Klebsiella pneumoniae BB6; conditions: 24 h in Luria Broth; 0.5 mM NEM, 0.5 mM MD, 1 mM DMFU, 4 mM DEME, DEMO, DMMO, 0.5 mM GTN, PETN, TNT; NADPH
[7] = test system: Gibberella moniliformis CD611; assay: Induction of nitroglycerin-degrading activity in Gibberella moniliformis CD611

| Structure (SMILES) | Fold-Induction relative to the control [1] | nitroglycerin-degrading activity of cell-free extract [1] | Fold-Induction relative to the control [2] | nitroglycerin-degrading activity of cell-free extract [3] | nitroglycerin-degrading activity of cell-free extract [4] | nitroglycerin-degrading activity of cell-free extract [5] | nitroglycerin-degrading activity of cell-free extract [6] | growth of G. moniliformis CD611 in the presence of the compound ([7]; 0.5 mM TNT, 0.5 mM NEM, 0.25 mM MD, 1 mM 3HC, 29 h) | nitroglycerin-degrading activity of cell-free extract [2] | nitroglycerin-degrading activity of cell-free extract ([7]; 29 h in Luria Broth, 0.5 mM GTN, PETN, 1 mM DMFU, 4 mM DEME, 1 mM TPBO, TBHQ, DMME, NADPH) |
| --- | --- | --- | --- | --- | --- | --- | --- | --- | --- | --- |
| O=[N+]([O-])OCC(CO[N+](=O)[O-])O[N+](=O)[O-] | 1.1 fold | 0.68 U/g | 1.0 fold | 0.10 U/g | 0.44 U/g | – | – | – | – | – |
| Cc1c([N+](=O)[O-])cc([N+](=O)[O-])cc1[N+](=O)[O-] | 0.81 fold | 0.49 U/g | – | 3.8 U/g | 3.4 U/g | <0.10 U/g | 0.22 U/g | Growth was inhibited | 27 U/g | – |
| O=[N+]([O-])OCC(CO[N+](=O)[O-])(CO[N+](=O)[O-])CO[N+](=O)[O-] | 0.63 fold | 0.38 U/g | 0.64 fold | 0.14 U/g | 0.26 U/g | <0.10 U/g | <0.10 U/g | – | 12 U/g | <0.10 U/g |
